The test deals with MM cell lines. The test is classed as cell-based, human.

The structures appear in SMILES notation. “Also recorded” adds a separate entry of the source.

As to `COCCN1CCC(c2cc(CN(C)C(=O)c3cccc(Oc4ccccc4)c3)ccn2)CC1` [TP-064N, N-((2-(1-(2-methoxyethyl)piperidin-4-yl)pyridin-4-yl)methyl)-N-methyl-3-phenoxybenzamide], the “effect on cell growth of MM cells” value is recorded as “does not affect; also recorded: did not affect”.

Source of the values: publication PMC5915086 (Oncotarget, 2018).
